Source: ChEMBL document CHEMBL4190307, “Design, synthesis and biological evaluation of novel coumarin-N-benzyl pyridinium hybrids as multi-target agents for the treatment of Alzheimer's disease” (Eur J Med Chem, 2017)

The chains behind the UniProt entries cited, without tags or fusion partners.
UniProt P27338, whole entry: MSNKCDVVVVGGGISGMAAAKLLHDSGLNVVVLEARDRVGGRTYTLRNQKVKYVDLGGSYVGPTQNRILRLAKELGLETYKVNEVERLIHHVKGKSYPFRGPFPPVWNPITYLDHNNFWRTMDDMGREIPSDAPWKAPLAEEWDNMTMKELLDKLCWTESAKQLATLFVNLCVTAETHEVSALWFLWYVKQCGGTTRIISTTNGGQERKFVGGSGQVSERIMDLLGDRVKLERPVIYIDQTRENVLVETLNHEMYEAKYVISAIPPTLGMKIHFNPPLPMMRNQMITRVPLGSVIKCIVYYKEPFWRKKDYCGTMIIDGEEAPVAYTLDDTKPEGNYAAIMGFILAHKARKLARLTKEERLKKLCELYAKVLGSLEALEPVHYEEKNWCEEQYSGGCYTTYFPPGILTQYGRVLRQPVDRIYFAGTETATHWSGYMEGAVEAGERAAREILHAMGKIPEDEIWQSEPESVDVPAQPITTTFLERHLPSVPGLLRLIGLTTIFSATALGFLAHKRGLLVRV

Biological target: Amine oxidase [flavin-containing] B (Homo sapiens, UniProt P27338)
Test: Irreversible inhibition of recombinant human MAO-B assessed as enzyme activity recovery at 10 times IC50 using p-tyramine as substrate preincubated for 30 mins followed by 100 fold compound dilution by Amplex Red dye-based fluorometric method relative to control
Set-up: scale not given: the % may be the effect or the level left

C#CCN(C)Cc1ccccc1 [PARGYLINE]
Activity: < 10%
